# Apparent affinities of Ab-14 variants for a coronavirus HR2 peptide

Target: peptide PDVDLGDISGINAS, taken from heptad repeat 2 (HR2) of SARS-CoV-2 spike.

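Phage display of a naive human antibody library on the peptide gave the parent. This is the validation round: designs drawn from the data on random variants, tested in the same kind of assay. Their group label is 14H_En_Gen (En: ensemble of fine-tuned language models; Gen: genetic algorithm). Affinity was read by AlphaSeq, a pooled yeast mating assay with surface-displayed partners. Pairs that bind mate more often; barcode pairs of the diploids are counted by sequencing. Read counts were normalised to the haploid input and turned into Kd by a linear fit to BCL2-family pairs of known affinity, for each replicate. Mating was done six times.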

Each scFv is VH, a 15-residue (Gly4Ser)3 linker, VL, as in the parent Ab-14, and differs from it in the CDRs of the heavy chain only.
VH: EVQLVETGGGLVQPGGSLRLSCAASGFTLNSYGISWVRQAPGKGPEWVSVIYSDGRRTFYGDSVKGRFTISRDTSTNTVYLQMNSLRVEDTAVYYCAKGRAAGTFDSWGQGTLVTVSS
VL: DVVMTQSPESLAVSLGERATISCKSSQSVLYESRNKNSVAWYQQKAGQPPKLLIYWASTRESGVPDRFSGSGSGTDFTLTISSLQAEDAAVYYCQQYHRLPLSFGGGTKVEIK

The parent's heavy chain CDRs are GFTLNSYGIS, VIYSDGRRTFYGDSVK, GRAAGTFDS; each variant's own CDRs replace them letter for letter. Numbers give log10(Kd / nM), so 0 is 1 nM and 3 is 1 µM. Smaller is tighter. "nd" means that the variant was in the library but no mating with the target was seen in that replicate; the authors take this as a sign of poor binding, and no number exists. Three control strains display no target. For all heavy chain designs, 1% of the pairings with them gave a signal, with a median of 2.08 and one signal in twenty below 0.84, so weak values seen in few replicates may be background. The control count says in how many pairings with the empty strains this scFv gave a signal. The range of this assay differs from that of the first round, and the authors advise against merging the two. In the paper, a design with two or fewer of six values counts as a poor binder.

The variant GFDLDEYGIS / VIYADGQRTFYADSVK / GENAGTFDL showed -0.32, -0.47, -0.01, -0.45, -0.13, -0.20 (controls 1 of 18).
The variant GFDLNEYGIS / VIYADGVRTVYADSVK / GENAGTFDI showed -0.23, -0.57, -0.80, -0.54, -0.42, -0.57 (controls 0 of 18).
The variant GFDLNEYGIS / VIYADGKRTAYADDVK / GNVAGTFDL showed -0.47, -0.62, -0.58, -0.34, -0.63, -0.56 (controls 0 of 18).
The variant GFDLNEYGIS / VIYADGMRTAYADDVK / GENAGTFDV showed 0.12, 0.21, 0.55, 0.22, 0.36, 0.57 (controls 0 of 18).
The variant GFDLDEYGIS / VIYADGQRTAYIDSVK / GENAGTFDV showed -0.04, -0.04, -0.29, -0.40, -0.45, 0.06 (controls 0 of 18).
The variant GFDLNEYGIS / VIYADGSRTAYADSVK / GQVAGTFDI showed -0.53, -0.35, -0.38, -0.66, -0.74, -0.35 (controls 1 of 18).
The variant GFDLEDYGIS / VIYADGQRTAYADSVK / GNVAGTFDQ showed -0.23, 0.34, 0.24, -0.38, 0.09, 0.12 (controls 0 of 18).
The variant GFDLNEYGIS / VIYADGMRTAYADNVK / GNEAGTFDV showed 1.29, 0.84, 0.09, 0.72, 0.52, 0.35 (controls 0 of 18).
The variant GFDLNEYGIS / VIYADGKRTAYADDVK / GETAGTFDL showed -0.98, -1.20, -0.95, -0.90, -1.51, -1.04 (controls 0 of 18).
The variant GFDLDEYGIS / VIYADGMRTAYADDVK / GTNAGTFDV showed -0.71, -0.59, -0.65, -0.87, -0.97, -0.56 (controls 0 of 18).
The variant GFDLNEYGIS / VIYADGMRTAYANSVK / GEVAGTFDL showed 0.05, -0.12, -0.87, -0.66, -0.75, -0.51 (controls 0 of 18).
The variant GFDLDEYGIS / VIYADGMRTAYADDVK / GEVAGTFDV showed -0.23, -0.62, -0.52, -0.46, -0.19, -0.31 (controls 0 of 18).
The variant GFDLNEYGIS / VIYADGMRTAYANSVK / GEVAGTFDT showed 0.71, 1.14, 0.14, 0.61, 1.40, 0.64 (controls 0 of 18).
The variant GFDLEDYGIS / VIYADGKRTAYADSVK / GEVAGTFDT showed 0.36, 0.58, -0.34, -0.17, 0.07, 0.69 (controls 0 of 18).
The variant GFDLNEYGIS / VIYADGVRTAYADSVK / GENAGTFDL showed nd, -0.29, nd, nd, -0.76, 0.87 (controls 0 of 18).
The variant GFDLNEYGIS / VIYADGMRTAYADSVK / GHNAGTFDI showed -0.05, -0.12, -0.72, 0.51, -0.19, 0.31 (controls 0 of 18).
The variant GFDLNEYGIS / VIYADGMRTAYADSVK / GEIAGTFDQ showed -0.99, -0.41, -0.57, -1.40, -0.11, -0.32 (controls 0 of 18).
The variant GFDLDEYGIS / VIYADGMRTAYTDSVK / GANAGTFDV showed 0.39, -0.24, -0.31, -0.66, -0.56, -0.09 (controls 0 of 18).
The variant GFDLNEYGIS / VIYADGKRTAYADSVK / GGVAGTFDV showed -0.50, -0.76, -0.78, -0.78, -1.14, -0.86 (controls 0 of 18).
The variant GFDLNEYGIS / VIYADGVRQAYADSVK / GQNAGTFDV showed -0.62, -0.87, -1.54, -1.32, -1.40, -1.09 (controls 0 of 18).
The variant GFSLDEYGIS / VIYADGMRTAYSDSVK / GNVAGTFDL showed -0.37, -0.23, -0.17, -0.39, -0.38, 0.53 (controls 0 of 18).
The variant GFDLNEYGIS / VIYADGMRTAYSDSVK / GNVAGTFDV showed 0.05, -0.56, -0.52, -0.26, 0.10, 0.53 (controls 0 of 18).
The variant GFDLNEYGIS / VIYADGKRTAYIDSVK / GQVAGTFDV showed -0.34, -0.78, -0.66, -0.91, -0.69, -0.32 (controls 1 of 18).
The variant GFDLNEYGIS / VIYADGMRSYYADSVK / GNVAGTFDV showed 0.71, 1.17, 0.36, -0.04, 0.57, 0.12 (controls 0 of 18).
The variant GFDLNEYGIS / VIYADGRRTAYADDVK / GNVAGTFDV showed 0.12, -0.66, -0.14, -0.69, -0.42, 0.08 (controls 0 of 18).
The variant GFDLDEYGIS / VIYADGMRTAYADSVK / GNTAGTFDL showed -0.26, -0.22, -0.47, -0.49, -0.65, -0.60 (controls 0 of 18).
The variant GFDLNEYGIS / VIYADGSRTAYSDSVK / GNTAGTFDV showed -0.19, 0.18, 0.34, 1.63, -0.17, 0.60 (controls 0 of 18).
The variant GFDLNEYGIS / VIYADGVRTAYADDVK / GETAGTFDQ showed -0.12, 0.18, -0.01, -0.23, 0.31, -0.32 (controls 0 of 18).
The variant GFDLNEYGIS / VIYADGQRTYYADSVK / GENAGTFDI showed 0.95, nd, nd, 0.75, 0.81, 1.99 (controls 0 of 18).
The variant GFDLNEYGIS / VIYADGMRKYYADSVK / GNQAGTFDV showed -1.41, -1.70, -1.77, -1.42, -1.75, -1.78 (controls 0 of 18).
The variant GFNLDEYGIS / VIYADGMRTFYADSVK / GNVAGTFDV showed -0.52, -0.35, -0.29, -0.38, -0.57, -0.37 (controls 0 of 18).
The variant GFDLNEYGIS / VIYADGVRTAYIDSVK / GNVAGTFDQ showed -0.63, -1.97, -1.45, -2.52, -1.72, -1.96 (controls 0 of 18).
The variant GFDLNEYGIS / VIYADGMRTAYADSVK / GNQAGTFDL showed -0.13, -0.17, nd, 0.81, 0.01, -0.48 (controls 0 of 18).
The variant GFDLNEYGIS / VIYADGQRTAYQDSVK / GNVAGTFDV showed -0.55, -0.31, -1.12, -1.30, -0.62, -0.80 (controls 0 of 18).
The variant GFDLNEYGIS / VIYADGVRTSYADSVK / GEVAGTFDT showed 0.08, 0.13, -0.46, 0.23, -0.46, 0.08 (controls 0 of 18).
The variant GFDLNEYGIS / VIYADGVRSAYADSVK / GNNAGTFDV showed -0.20, -0.57, -0.47, -0.61, -0.27, -0.31 (controls 0 of 18).
The variant GFDLNEYGIS / VIYADGMRTAYSDSVK / GTNAGTFDI showed 0.35, -1.02, -0.18, -0.16, -0.82, -0.65 (controls 0 of 18).
The variant GFDLEEYGIS / VIYADGMRTAYSDSVK / GNNAGTFDV showed 0.21, 0.13, -0.56, -0.17, -0.21, 0.19 (controls 0 of 18).
The variant GFDLNEYGIS / VIYADGSRTAYADSVK / GGNAGTFDI showed 0.03, -0.33, -0.74, -0.41, -0.23, 0.24 (controls 0 of 18).
The variant GFDLNEYGIS / VIYADGVRTAYSDSVK / GNNAGTFDM showed 0.32, 1.45, 0.76, 0.46, 0.52, 0.60 (controls 0 of 18).
The variant GFDLDEYGIS / VIYADGQRTAYADDVK / GGNAGTFDV showed 0.56, 0.00, -0.06, -0.34, -0.37, -0.43 (controls 0 of 18).
The variant GFDLDEYGIS / VIYADGKRTAYADDVK / GEVAGTFDT showed -0.78, -0.36, -0.58, -0.86, -1.20, -1.00 (controls 0 of 18).

Extract of 5 entries:

| CDR-H1 | CDR-H2 | CDR-H3 | replicates, log10 nM | empty controls |
|---|---|---|---|---|
| GFDLNEYGIS | VIYADGMRTAYANSVK | GEVAGTFDL | 0.05, -0.12, -0.87, -0.66, -0.75, -0.51 | 0/18 |
| GFDLEDYGIS | VIYADGKRTAYADSVK | GEVAGTFDT | 0.36, 0.58, -0.34, -0.17, 0.07, 0.69 | 0/18 |
| GFDLDEYGIS | VIYADGKRTAYADDVK | GEVAGTFDT | -0.78, -0.36, -0.58, -0.86, -1.20, -1.00 | 0/18 |
| GFDLNEYGIS | VIYADGSRTAYADSVK | GGNAGTFDI | 0.03, -0.33, -0.74, -0.41, -0.23, 0.24 | 0/18 |
| GFDLDEYGIS | VIYADGMRTAYADSVK | GNTAGTFDL | -0.26, -0.22, -0.47, -0.49, -0.65, -0.60 | 0/18 |

Source: Li et al. 2023 (doi:10.1038/s41467-023-39022-2), MIT Lincoln Laboratory and A-Alpha Bio; data file from the FLAb repository.